Values of other authors as cited in patent US6291405A, “Glycol based drilling fluid” (M-I LLC, priority 1998, dated 2001).

Settings: in vivo, po; cited from earlier work

For CC(O)COC(C)COC(C)CO (stereo not shown) [Tripropylene Glycol, tripropylene glycol], the LD50 is given as ~ 3 gm/KG.
